In this assay the target is human FXR (NR1H4) (Homo sapiens, UniProt Q96RI1). Description: Human FXR (NR1H4) Assay (Gal4 promoter driven luciferase reporter, Indigo Bioscience kit IB00601). Conditions: CHO reporter cells expressing human NR1H4. Format: cell-based. (In general: In a reporter assay the amount or activity of a reporter protein is the signal.)

Chains of the proteins cited; added tags and fusions are not shown.
UniProt Q96RI1, whole entry: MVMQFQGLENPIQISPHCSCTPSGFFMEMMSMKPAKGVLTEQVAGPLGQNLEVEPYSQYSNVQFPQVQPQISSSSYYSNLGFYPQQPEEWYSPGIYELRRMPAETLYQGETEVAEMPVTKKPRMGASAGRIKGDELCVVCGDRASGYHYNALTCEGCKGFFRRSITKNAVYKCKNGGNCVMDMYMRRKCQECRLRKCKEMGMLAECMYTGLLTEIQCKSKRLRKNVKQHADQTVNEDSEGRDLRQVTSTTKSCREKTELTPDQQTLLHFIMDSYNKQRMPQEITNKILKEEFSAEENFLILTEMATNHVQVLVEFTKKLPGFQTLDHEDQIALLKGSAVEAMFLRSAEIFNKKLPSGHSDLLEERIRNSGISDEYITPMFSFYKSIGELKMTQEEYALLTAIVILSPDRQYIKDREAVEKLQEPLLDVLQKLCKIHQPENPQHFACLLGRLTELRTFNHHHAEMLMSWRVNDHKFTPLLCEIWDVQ

Regarding `CC(C)Oc1cc(C(=O)O)cc2sc(N3C[C@@H]4CC[C@@H](NCc5c(-c6c(Cl)cccc6Cl)noc5C5CC5)[C@@H]4C3)nc12` (relative stereo), the EC50 – broadly, the concentration that produces a half-maximal response – (luciferase, 22 hours incubation, potency ranges) fell in the range of 200 to 1000 nM. For the same molecule, the “Efficacy (%)” value (normalized to CDCA set as 100%) turned out to be 49%.

(Values after US10689391B2, “Isoxazole analogs as FXR agonists and methods of use thereof” (Enanta Pharmaceuticals, Inc., priority 2017, dated 2020).)
